Laboratory results from patent EP0558321A1 (priority 1992, dated 1993).

Experiments:
[1] = tested on: MDCK cells; assay: Cytotoxicity observed microscopically in the influenza virus test; details: symbol in parentheses
[2] = tested on: GMK cells; assay: Cytotoxicity observed microscopically in the HSV-1 test; details: symbol in parentheses
[3] = compound concentration 10 µg/ml
[4] = compound concentration 20 µg/ml
[5] = compound concentration 50 µg/ml

SMILES	cytotoxicity [1, 3]	cytotoxicity [1, 4]	cytotoxicity [1, 5]	cytotoxicity [2, 3]	cytotoxicity [2, 5]
OC(c1ccccc1)(C1C2CC3C(C2)C31)C12CCCN1CCC2 (stereo not drawn) [Prep. Ex. 3, (1R*)-1-(1-azabicyclo[3.3.0]octan-5-yl)1-phenyl-1-[(3'S*)-3-tricyclo[2.2.1.0]heptyl]methan-1-ol hydrochloride]	0.83 (-)	2.16 (-)	>3.33 (-)	0.00 (-)	>3.00 (-)
CC(C(O)(c1ccccc1)C1C2CC3C(C2)C31)C12CCCN1CCC2 (centres unmarked) [Prep. Ex. 6, 2-(1-azabicyclo[3.3.0]octan-5-yl)-1-phenyl-1-(3-tricyclo [2.2.1.0]heptyl)propan-1-ol]	0.00 (+)	1.33 (+)	–	1.00 (±)	–

Counter-ions that a name gives are not always drawn.
